Laboratory results from US20240360179A1, “STAPLED PEPTIDES AND METHODS THEREOF” (FOG PHARMACEUTICALS, INC., priority 2021, published 2024).

Protein sequences, listed by entry. Tags and fused reporters are not part of them.
UniProt P35222, whole entry: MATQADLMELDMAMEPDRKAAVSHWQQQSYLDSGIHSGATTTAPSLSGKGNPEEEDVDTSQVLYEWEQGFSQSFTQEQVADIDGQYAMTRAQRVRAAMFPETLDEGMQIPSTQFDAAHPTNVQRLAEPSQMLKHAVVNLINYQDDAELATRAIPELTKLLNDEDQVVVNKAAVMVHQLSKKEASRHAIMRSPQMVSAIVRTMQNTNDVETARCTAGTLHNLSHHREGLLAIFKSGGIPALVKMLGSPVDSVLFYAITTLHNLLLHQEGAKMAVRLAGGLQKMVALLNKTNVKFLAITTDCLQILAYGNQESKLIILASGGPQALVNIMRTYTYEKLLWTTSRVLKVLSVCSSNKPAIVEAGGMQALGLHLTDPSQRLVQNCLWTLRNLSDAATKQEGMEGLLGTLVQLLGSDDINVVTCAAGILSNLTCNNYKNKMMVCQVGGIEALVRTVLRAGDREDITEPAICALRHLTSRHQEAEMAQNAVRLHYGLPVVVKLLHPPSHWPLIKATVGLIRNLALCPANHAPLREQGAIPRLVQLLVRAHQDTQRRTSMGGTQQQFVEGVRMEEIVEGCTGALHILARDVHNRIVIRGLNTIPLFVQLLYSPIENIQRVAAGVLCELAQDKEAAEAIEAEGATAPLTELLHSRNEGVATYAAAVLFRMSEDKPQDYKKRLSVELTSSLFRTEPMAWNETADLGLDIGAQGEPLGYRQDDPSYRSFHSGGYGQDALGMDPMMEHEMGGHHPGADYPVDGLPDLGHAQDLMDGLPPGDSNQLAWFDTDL

What was measured:
[1] = target: T1, full-length B-Catenin (Uniprot ID P35222) (Homo sapiens, UniProt P35222); test: biochemical; format: binding; conditions: beta-Catenin FP IC50 (nM), competition fluorescence polarization
T1 construct: 10 nM full-length B-Catenin (Uniprot ID P35222)

[2] = target: beta-catenin/TCF4 interaction (Homo sapiens, UniProt P35222); test: cell-based; parameters: host or cells: HEK293; conditions: NanoBRET Abs IC50 (uM)

Row | SMILES | IC50 [1] [nM] | IC50 [2] [µM]
1 | CC(=O)N1CCC[C@]12CC=CCCCC1(CCCC=CCCCOC(=O)N3CC[C@@]4(C3)NC(=O)[C@H](CCC(=O)N3CCC(CC3)C[C@@H](C(=O)N[C@@H](C)C(N)=O)NC(=O)[C@H](Cc3csc5ccccc35)NC(=O)[C@H](Cc3ccccc3C(F)(F)F)NC4=O)NC(=O)[C@H](Cc3ccccc3)NC(=O)[C@H](C)NC(=O)[C@H](C)NC(=O)[C@H](Cc3cccc(C(=O)O)c3)NC(=O)[C@H](CC(=O)O)NC1=O)NC(=O)[C@H](CC(C)(C)C)NC(=O)[C@H](CC(=O)O)NC2=O (relative stereo) [I-259, Ac-PL3-Asp-Npg-B5-Asp-3COOHF-Ala-Ala-Phe-GlnR*3-PyrS2-2F3MeF-BztA-4PipA*3-Ala-NH2] | 50 to 200 | 3 to 10
2 | CC(=O)N1CCC[C@]12CC=CCCCC1(CCCC=CCCCOC(=O)N3CC[C@@]4(C3)NC(=O)[C@H](CCCCn3cc(nn3)COC[C@@H](C(=O)N[C@@H](C)C(N)=O)NC(=O)[C@H](Cc3csc5ccccc35)NC(=O)[C@H](Cc3ccsc3)NC4=O)NC(=O)[C@H](Cc3ccccc3)NC(=O)[C@H](C)NC(=O)C(C)(C)NC(=O)[C@H](Cc3cccc(C(=O)O)c3)NC(=O)[C@H](CC(=O)O)NC1=O)NC(=O)[C@H](CC(C)(C)C)NC(=O)[C@H](CC(=O)O)NC2=O (relative stereo) [I-262, Ac-PL3-Asp-Npg-B5-Asp-3COOHF-Aib-Ala-Phe-TriAzLys*3-PyrS2-3Thi-BztA-sCH2S*3-Ala-NH2] | < 50 | 1.5 to 3
3 | CC(=O)N1CCC[C@]12CC=CCCCC1(CCCC=CCCCOC(=O)N3CC[C@@]4(C3)NC(=O)[C@H](COCc3cn(nn3)CCCC[C@@H](C(=O)N[C@@H](C)C(N)=O)NC(=O)[C@H](Cc3csc5ccccc35)NC(=O)[C@H](Cc3ccsc3)NC4=O)NC(=O)[C@H](Cc3ccccc3)NC(=O)[C@H](C)NC(=O)C(C)(C)NC(=O)[C@H](Cc3cccc(C(=O)O)c3)NC(=O)[C@H](CC(=O)O)NC1=O)NC(=O)[C@H](CC(C)(C)C)NC(=O)[C@H](CC(=O)O)NC2=O (relative stereo) [I-263, Ac-PL3-Asp-Npg-B5-Asp-3COOHF-Aib-Ala-Phe-sCH2S*3-PyrS2-3Thi-BztA-TriAzLys*3-Ala-NH2] | < 50 | 3 to 10
4 | CC(=O)N1CCC[C@]12CC=CCCCC1(CCCC=CCCCOC(=O)N3CC[C@@]4(C3)NC(=O)[C@H](COCc3cn(nn3)CCCC[C@@H](C(=O)N[C@@H](C)C(N)=O)NC(=O)[C@H](Cc3csc5ccccc35)NC(=O)[C@H](Cc3ccsc3)NC4=O)NC(=O)[C@H](Cc3ccccc3)NC(=O)[C@H](C)NC(=O)[C@H](C)NC(=O)[C@H](Cc3cccc(C(=O)O)c3)NC(=O)[C@H](CC(=O)O)NC1=O)NC(=O)[C@H](CC(C)(C)C)NC(=O)[C@H](CC(=O)O)NC2=O (relative stereo) [I-265, Ac-PL3-Asp-Npg-B5-Asp-3COOHF-Ala-Ala-Phe-sCH2S*3-PyrS2-3Thi-BztA-TriAzLys*3-Ala-NH2] | < 50 | 3 to 10
5 | CCC[C@@H]1NC(=O)[C@]23CCN(C2)C(=O)OCCCC=CCCCC2(CCCC=CC[C@]4(CCCN4C(C)=O)C(=O)N[C@@H](CC(=O)O)C(=O)N[C@@H](CC(C)(C)C)C(=O)N2)C(=O)N[C@@H](CC(=O)O)C(=O)N[C@@H](Cc2cccc(C(=O)O)c2)C(=O)NC(C)(C)C(=O)N[C@@H](C)C(=O)N[C@@H](Cc2ccccc2)C(=O)N[C@@H](CCCCNC(=O)CC[C@@H](C(=O)N[C@@H](C)C(N)=O)NC(=O)[C@H](Cc2csc4ccccc24)NC1=O)C(=O)N3 (relative stereo) [I-270, Ac-PL3-Asp-Npg-B5-Asp-3COOHF-Aib-Ala-Phe-Lys*3-PyrS2-Nva-BztA-GlnR*3-Ala-NH2] | < 50 | 3 to 10
6 | CC(=O)N1CCC[C@]12CC=CCCCC1(CCCC=CCCCOC(=O)N3CC[C@@]4(C3)NC(=O)[C@H](CCCCNC(=O)CC[C@@H](C(=O)N[C@@H](C)C(N)=O)NC(=O)[C@H](Cc3csc5ccccc35)NC(=O)[C@H](CC3CCC3)NC4=O)NC(=O)[C@H](Cc3ccccc3)NC(=O)[C@H](C)NC(=O)C(C)(C)NC(=O)[C@H](Cc3cccc(C(=O)O)c3)NC(=O)[C@H](CC(=O)O)NC1=O)NC(=O)[C@H](CC(C)(C)C)NC(=O)[C@H](CC(=O)O)NC2=O (relative stereo) [I-283, Ac-PL3-Asp-Npg-B5-Asp-3COOHF-Aib-Ala-Phe-Lys*3-PyrS2-Cba-BztA-GlnR*3-Ala-NH2] | < 50 | 3 to 10
7 | CC(=O)N1CCC[C@]12CC=CCCCC1(CCCC=CCCCOC(=O)N3CC[C@@]4(C3)NC(=O)[C@H](CCCCNC(=O)CC[C@@H](C(=O)N[C@@H](C)C(N)=O)NC(=O)[C@H](Cc3csc5ccccc35)NC(=O)[C@H](CC3CCCC3)NC4=O)NC(=O)[C@H](Cc3ccccc3)NC(=O)[C@H](C)NC(=O)C(C)(C)NC(=O)[C@H](Cc3cccc(C(=O)O)c3)NC(=O)[C@H](CC(=O)O)NC1=O)NC(=O)[C@H](CC(C)(C)C)NC(=O)[C@H](CC(=O)O)NC2=O (relative stereo) [I-284, Ac-PL3-Asp-Npg-B5-Asp-3COOHF-Aib-Ala-Phe-Lys*3-PyrS2-CypA-BztA-GlnR*3-Ala-NH2] | < 50 | 3 to 10
8 | CC(=O)N1CCC[C@]12CC=CCCCC1(CCCC=CCCCOC(=O)N3CC[C@@]4(C3)NC(=O)[C@H](CCCCNC(=O)CC[C@@H](C(=O)N[C@@H](C)C(N)=O)NC(=O)[C@H](Cc3csc5ccccc35)NC(=O)[C@H](Cc3ccccc3C(F)(F)F)NC4=O)NC(=O)[C@H](Cc3ccccc3)NC(=O)[C@H](C)NC(=O)C(C)(C)NC(=O)[C@H](Cc3cccc(C(=O)O)c3)NC(=O)[C@H]([C@@H](C)C(=O)O)NC1=O)NC(=O)[C@H](CC(C)(C)C)NC(=O)[C@H](CC(=O)O)NC2=O (relative stereo) [I-287, Ac-PL3-Asp-Npg-B5-RbMeAsp-3COOHF-Aib-Ala-Phe-Lys*3-PyrS2-2F3MeF-BztA-GlnR*3-Ala-NH2] | 50 to 200 | > 10
9 | CC(=O)N1CCC[C@]12CC=CCCCC1(CCCC=CCCCOC(=O)N3CC[C@@]4(C3)NC(=O)[C@H](CCCCNC(=O)CC[C@@H](C(=O)N[C@@H](C)C(N)=O)NC(=O)[C@H](Cc3csc5ccccc35)NC(=O)[C@H](Cc3ccccc3C(F)(F)F)NC4=O)NC(=O)[C@H](Cc3ccccc3)NC(=O)[C@H](C)NC(=O)C(C)(C)NC(=O)[C@H](Cc3cccc(C(=O)O)c3)NC(=O)[C@H](CC(=O)O)NC1=O)NC(=O)[C@H](CC(C)(C)C)NC(=O)[C@H]([C@H](C)C(=O)O)NC2=O (relative stereo) [I-288, Ac-PL3-SbMeAsp-Npg-B5-Asp-3COOHF-Aib-Ala-Phe-Lys*3-PyrS2-2F3MeF-BztA-GlnR*3-Ala-NH2] | < 50 | 1.5 to 3
10 | CC(=O)N1CCC[C@]12CC=CCCCC1(CCCC=CCCCOC(=O)N3CC[C@@]4(C3)NC(=O)[C@H](CCCCNC(=O)CC[C@@H](C(=O)N[C@@H](C)C(N)=O)NC(=O)[C@H](Cc3csc5ccccc35)NC(=O)[C@H](Cc3ccccc3C(F)(F)F)NC4=O)NC(=O)[C@H](Cc3ccccc3)NC(=O)[C@H](C)NC(=O)C(C)(C)NC(=O)[C@H](Cc3cccc(C(=O)O)c3)NC(=O)[C@H](CC(=O)O)NC1=O)NC(=O)[C@H](CC(C)(C)C)NC(=O)[C@H]([C@@H](C)C(=O)O)NC2=O (relative stereo) [I-289, Ac-PL3-RbMeAsp-Npg-B5-Asp-3COOHF-Aib-Ala-Phe-Lys*3-PyrS2-2F3MeF-BztA-GlnR*3-Ala-NH2] | < 50 | 3 to 10
11 | CC(=O)N1CCC[C@]12CC=CCCCC1(CCCC=CCCCOC(=O)N3CC[C@@]4(C3)NC(=O)[C@H](CCCCNC(=O)CC[C@@H](C(=O)N[C@@H](C)C(N)=O)NC(=O)[C@H](Cc3csc5ccccc35)NC(=O)[C@H](Cc3ccccc3C(F)(F)F)NC4=O)NC(=O)[C@H](Cc3ccccc3)NC(=O)[C@H](C)NC(=O)C(C)(C)NC(=O)[C@H](Cc3cccc(C(=O)O)c3)NC(=O)[C@H](CCC(=O)O)NC1=O)NC(=O)[C@H](CC(C)(C)C)NC(=O)[C@H](CCC(=O)O)NC2=O (relative stereo) [I-291, Ac-PL3-Glu-Npg-B5-Glu-3COOHF-Aib-Ala-Phe-Lys*3-PyrS2-2F3MeF-BztA-GlnR*3-Ala-NH2] | > 1000 | > 10
12 | CC(=O)N1CCC[C@]12CC=CCCCC1(CCCC=CCCCOC(=O)N3CC[C@@]4(C3)NC(=O)[C@H](CCCCNC(=O)CC[C@@H](C(=O)N[C@@H](C)C(N)=O)NC(=O)[C@H](Cc3csc5ccccc35)NC(=O)[C@H](Cc3ccco3)NC4=O)NC(=O)[C@H](Cc3ccccc3)NC(=O)[C@H](C)NC(=O)C(C)(C)NC(=O)[C@H](Cc3cccc(C(=O)O)c3)NC(=O)[C@H](CC(=O)O)NC1=O)NC(=O)[C@H](CC(C)(C)C)NC(=O)[C@H](CC(=O)O)NC2=O (relative stereo) [I-292, Ac-PL3-Asp-Npg-B5-Asp-3COOHF-Aib-Ala-Phe-Lys*3-PyrS2-2FurA-BztA-GlnR*3-Ala-NH2] | < 50 | 3 to 10
13 | CC(=O)N1CCC[C@]12CC=CCCCC1(CCCC=CCCCOC(=O)N3CC[C@@]4(C3)NC(=O)[C@H](CCCCNC(=O)CC[C@@H](C(=O)N[C@@H](C)C(N)=O)NC(=O)[C@H](Cc3csc5ccccc35)NC(=O)[C@H](Cc3ccccc3C)NC4=O)NC(=O)[C@H](Cc3ccccc3)NC(=O)[C@H](C)NC(=O)C(C)(C)NC(=O)[C@H](Cc3cccc(C(=O)O)c3)NC(=O)[C@H](CC(=O)O)NC1=O)NC(=O)[C@H](CC(C)(C)C)NC(=O)[C@H](CC(=O)O)NC2=O (relative stereo) [I-294, Ac-PL3-Asp-Npg-B5-Asp-3COOHF-Aib-Ala-Phe-Lys*3-PyrS2-2MeF-BztA-GlnR*3-Ala-NH2] | < 50 | < 1.5
14 | CC(=O)N1CCC[C@]12CC=CCCCC1(CCCC=CCCCOC(=O)N3CC[C@@]4(C3)NC(=O)[C@H](CCCCNC(=O)CC[C@@H](C(=O)N[C@@H](C)C(N)=O)NC(=O)[C@H](Cc3csc5ccccc35)NC(=O)[C@H](Cc3ccccc3Br)NC4=O)NC(=O)[C@H](Cc3ccccc3)NC(=O)[C@H](C)NC(=O)C(C)(C)NC(=O)[C@H](Cc3cccc(C(=O)O)c3)NC(=O)[C@H](CC(=O)O)NC1=O)NC(=O)[C@H](CC(C)(C)C)NC(=O)[C@H](CC(=O)O)NC2=O (relative stereo) [I-295, Ac-PL3-Asp-Npg-B5-Asp-3COOHF-Aib-Ala-Phe-Lys*3-PyrS2-2BrF-BztA-GlnR*3-Ala-NH2] | < 50 | < 1.5
